Results published in patent US12053476B2, “Compounds, compositions and methods for cancer patient stratification and cancer treatment” (BAYER PHARMA AKTIENGESELLSCHAFT, priority 2016, dated 2024).

Tested on: HeLa cells
Assay: Follow-up dose-dependent rescue of DNMDP cytotoxicity (competition with DNMDP)
Conditions: co-treatment with DNMDP, 48 h, up to 10 μM

OCCN(CCO)c1nc(N2CCCCC2)c2nc(N(CCO)CCO)nc(N3CCCCC3)c2n1 [dipyridamole]
rescue of DNMDP cytotoxicity / competition (in words): not effective competitors
